Test results as given in patent US6875743B1, “Cell adhesion inhibitors” (Biogen, Inc., priority 1996, dated 2005).

Chains of the proteins cited; added tags and fusions are not shown. Residues count along the entry.
UniProt P05556, 21-798 limits assumed: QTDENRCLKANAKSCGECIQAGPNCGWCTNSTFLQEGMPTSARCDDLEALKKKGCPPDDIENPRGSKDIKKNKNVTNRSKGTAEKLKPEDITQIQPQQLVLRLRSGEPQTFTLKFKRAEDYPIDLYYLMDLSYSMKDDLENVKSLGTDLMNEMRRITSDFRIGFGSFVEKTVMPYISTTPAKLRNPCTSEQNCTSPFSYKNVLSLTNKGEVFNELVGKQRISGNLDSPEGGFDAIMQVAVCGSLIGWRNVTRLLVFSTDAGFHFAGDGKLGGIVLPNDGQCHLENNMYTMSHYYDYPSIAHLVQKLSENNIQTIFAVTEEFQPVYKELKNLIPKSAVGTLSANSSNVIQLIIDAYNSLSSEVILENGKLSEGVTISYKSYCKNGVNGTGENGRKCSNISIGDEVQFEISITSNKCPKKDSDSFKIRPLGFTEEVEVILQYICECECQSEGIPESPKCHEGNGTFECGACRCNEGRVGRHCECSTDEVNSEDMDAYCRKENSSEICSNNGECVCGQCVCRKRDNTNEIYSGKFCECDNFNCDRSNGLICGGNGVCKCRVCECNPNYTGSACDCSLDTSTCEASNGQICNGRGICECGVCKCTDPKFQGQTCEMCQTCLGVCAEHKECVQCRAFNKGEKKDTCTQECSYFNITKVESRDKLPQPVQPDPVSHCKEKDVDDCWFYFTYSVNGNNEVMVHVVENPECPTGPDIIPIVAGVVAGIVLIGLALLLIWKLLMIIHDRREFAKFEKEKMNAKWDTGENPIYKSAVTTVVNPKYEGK
UniProt P13612, 34-1032 limits assumed: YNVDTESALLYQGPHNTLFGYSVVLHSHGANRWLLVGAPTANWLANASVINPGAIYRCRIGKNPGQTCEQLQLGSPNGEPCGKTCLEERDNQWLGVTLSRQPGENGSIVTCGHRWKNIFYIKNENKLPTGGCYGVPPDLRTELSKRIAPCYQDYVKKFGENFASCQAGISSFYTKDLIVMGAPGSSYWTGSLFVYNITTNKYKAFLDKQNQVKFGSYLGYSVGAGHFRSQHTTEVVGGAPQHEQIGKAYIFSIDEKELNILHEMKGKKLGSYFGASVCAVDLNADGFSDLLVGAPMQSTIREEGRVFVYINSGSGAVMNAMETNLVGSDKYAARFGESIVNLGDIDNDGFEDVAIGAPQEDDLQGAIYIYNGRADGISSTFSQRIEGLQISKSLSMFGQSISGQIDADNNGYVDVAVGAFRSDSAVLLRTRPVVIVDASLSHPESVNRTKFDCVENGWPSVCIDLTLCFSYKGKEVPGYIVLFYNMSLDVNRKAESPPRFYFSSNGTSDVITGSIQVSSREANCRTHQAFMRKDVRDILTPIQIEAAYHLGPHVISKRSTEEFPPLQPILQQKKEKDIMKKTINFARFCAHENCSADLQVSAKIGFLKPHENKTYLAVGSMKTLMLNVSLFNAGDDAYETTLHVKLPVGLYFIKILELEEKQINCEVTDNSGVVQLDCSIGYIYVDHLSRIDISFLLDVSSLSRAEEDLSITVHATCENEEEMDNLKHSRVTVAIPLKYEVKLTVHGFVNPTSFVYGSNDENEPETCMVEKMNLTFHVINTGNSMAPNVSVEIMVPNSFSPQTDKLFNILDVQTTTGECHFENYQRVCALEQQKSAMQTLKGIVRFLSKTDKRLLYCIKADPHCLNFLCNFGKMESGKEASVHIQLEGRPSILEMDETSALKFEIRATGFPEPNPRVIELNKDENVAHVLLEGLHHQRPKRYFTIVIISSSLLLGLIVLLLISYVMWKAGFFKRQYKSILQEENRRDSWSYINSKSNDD

Biological target: VLA4 (Homo sapiens, UniProt P05556+P13612)
Assay: Inhibition of VLA4-dependent adhesion to BSA-CS1
Assay type: cell-based
Details: binding of BCECF-labelled Ramos cells to BSA-CS1 coated wells, 2 mM MnCl2

SMILES | IC50
CC(C)C[C@H](NC(=O)Cc1ccccc1)C(=O)N[C@@H](CC(=O)O)C(=O)N1CCCCC1C(=O)NCC(=O)O (stereo partly shown) | > 10 µM
CC(C)CCC(=O)N[C@@H](CC(=O)O)C(=O)NCC1CCCCC1 | > 10 µM
COc1ccc(CN2CN(C(=O)C(CC(C)C)NC(=O)Cc3ccc(NC(=O)Nc4ccccc4C)cc3)[C@@H](C(=O)O)CC2=O)cc1 (stereo partly shown) | > 10 µM
Cc1ccccc1NC(=O)Nc1ccc(CC(=O)NC(CC(C)C)C(=O)N2CN(CC(=O)OCc3ccccc3)C(=O)C[C@H]2C(=O)O)cc1 (stereo partly shown) | 0.05 to 10 µM
COc1ccc(CN2CN(C(=O)C(CC(C)C)NC(=O)Cc3ccc(NC(=O)Nc4ccccc4C)cc3)[C@@H](C(=O)O)CC2=O)cc1OC (stereo partly shown) | > 10 µM
COc1nc(CC(=O)N[C@@H](CC(C)C)C(=O)N[C@@H](CC(=O)O)C(=O)N[C@H](C(=O)N2CCC[C@H]2C(N)=O)C(C)C)ccc1NC(=O)Nc1ccccc1C | < 0.05 µM
COc1ccc(CNC(=O)[C@@H]2CC(=O)N(CC(=O)O)CN2C(=O)C(CC(C)C)NC(=O)Cc2ccc(NC(=O)Nc3ccccc3C)cc2)cc1 (stereo partly shown) | 0.05 to 10 µM
